Values of other authors, collected in patent US20260356984A1, “DNA-AFFIBODY-DRUG NANOSTRUCTURES FOR INHIBITING TRIPLE NEGATIVE BREAST CANCER GROWTH AND METASTASIS” (ARIZONA BOARD OF REGENTS ON BEHALF OF ARIZONA STATE …, priority 2022, published 2026).

Test system: TNBC
Conditions: employed as a single agent; cited from earlier work

## cetuximab: Anti-HER1 monoclonal antibody
  benefit to TNBC patients: neither antibody confers significant benefit to TNBC patients
